Experimental data taken from PMC10527924 (Toxicology in vitro : an international journal published in …, 2023).

Test system: excised human skin (EHS)

## C[C@]12CC[C@H]3[C@@H](CCC4=CC(=O)CC[C@@]43C)[C@@H]1CC[C@@H]2O [testosterone]
  mass distribution at 6 h post-dosing: most compound remained in the donor compartment
